Values quoted from earlier work, collected in US20210361598A1, “COMPOUNDS FOR PREVENTION AND TREATMENT OF POST-INTENSIVE CARE COGNITIVE DYSFUNCTION AND COGNITIVE DYSFUNCTION RESULTING FROM RESPIRATORY DISTRESS” (Abrexa Pharmaceuticals, Inc., priority 2020, published 2021).

System: post-surgical cognitive dysfunction
Conditions: literature reports, after surgery; cited from earlier work

## Pexelizumab: a humanized monoclonal antibody used as an immunosuppressive drug
  Effect on post-surgical cognitive dysfunction: had no effect
